This is an account of results in patent US8916516B2, “Treatment of fungal and/or protist infections” (AI2 Limited, priority 2005, dated 2014).

This assay has as its system fungi. Type of assay: cell-based. As to conditions: overall statement on the fungi tested. The protocol: Four compounds were supplied as an aqueous solution, 400 μM. Serial dilutions of each test peptide were prepared in addition to a control, which was a conventional antifungal drug, Amphoteracin B. Amphteracin B is obtained from Invitrogen or Melford laboratories.
Initial testing of the peptides was carried out against the following organisms: • 1) Aspergillus fumigatus AF293 (culture collection strain NCPF7367) • 2) Candida albicans 6862 (clinical isolate) • 3) Fusarium spp 5889 (clinical isolate) • 4) Fusarium spp 6507 (clinical isolate) • 5) Aspergillus terreus (clinical isolate) • 6) Aspergillus niger (clinical isolate) • 7) Staphylococcus aureus (Oxford strain, which is a standard reference strain used in MIC testing)
The bacterium S. aureus was tested with each of the peptides as a control. A suspension of each organism in an appropriate growth medium was added to the, dilutions of the peptides in order to give concentration ranges of 40 μM to 0.04 μM for each of the peptides, and 64-0.025 μg/ml for amphotericin B. Fungal strains were tested in RPMI media. RPMI is standard Roswell Park Memorial Institute medium (Morton, H. C., (1970) A survey of Commercially Available Tissue Culture Media. In Vitro 6: 89-108).
Candida and S. aureus plates were read after 24 hrs incubation and the Aspergillus and Fusarium strains read after 48 hrs. […]

In the case of “QSTEELRVRLASHLRKLRKRLL (Artificial polypeptide designated GIN 11) [contains only one RKR motif]”, the “antifungal activity (in words)” value was “useful antifungal agent”.
